Measured values from patent US20210277127A1.

Target: EGFR on the surface of A431 cells (UniProt P00533)
Test: cell-based or functional assay

Bispecific-3 (anti-EGFR.CD3 tetravalent bispecific antibody, EGFR antibody sequence of Panitumumab)
cell mortality rate (killing of PKH26-labeled A431 cells by CD3+ T cells, flow cytometry): 80%

Bispecific-1 (anti-EGFR.CD3 tetravalent bispecific antibody, EGFR antibody sequence of nimotuzumab)
cell mortality rate (killing of PKH26-labeled A431 cells by CD3+ T cells, flow cytometry): 80%
